In the case of `NC(=O)c1ccccc1N`, the solubility (mole fraction) by setting is: (in ethanol, 308.65 K) 0.0895; (in n-propanol, 298.95 K) 0.0435.

The solubility (mole fraction) is the moles of solute divided by all moles in the saturated solution.

For the origin of these results see BigSolDB 2.1.
